This note sets out measurements from PubChem BioAssay AID951 (NMMLSC, 2007).

The chains behind the UniProt entries cited, without tags or fusion partners. Where a name states a change or a piece, a line headed by the entry shows the natural chain unless it says otherwise.
UniProt Q9HD36: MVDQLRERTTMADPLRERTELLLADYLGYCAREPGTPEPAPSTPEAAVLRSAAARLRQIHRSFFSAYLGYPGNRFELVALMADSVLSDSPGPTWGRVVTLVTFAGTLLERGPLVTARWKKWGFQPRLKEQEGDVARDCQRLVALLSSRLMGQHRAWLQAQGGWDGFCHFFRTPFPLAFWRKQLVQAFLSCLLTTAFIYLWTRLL

The list shows a part of the results, in another mix than the full data. Activity calls are given as the source filed them. No stated cut-off is given here; in the data, active means inhibition above about 40%.

The experiment deals with Bcl-2-like protein 10 (Homo sapiens) (UniProt Q9HD36). Description: inhibitors of Bim-Bcl-B binding, primary screen, biochemical, multiplexed, human Bcl-2 family (AID 951).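 Further: 0% = tracer peptide without compound and 100% = reference inhibitor peptide.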 To be noted: bead-based flow cytometry, Bim peptide-Bcl-B binding; at 10 µM; active compounds read high.
For `CCN(N=Nc1nonc1N)c1nonc1N`, the inhibition (usually the relative decrease from the control value, in per cent) was inactive: -6%. As for `CCOP(=O)(Nc1ccccc1)OCC`, the figure is inactive: -1%; as for `Cc1cc(SC(NC(=O)c2ccc(F)cc2)C(Cl)(Cl)Cl)ncn1` (centres undefined), inactive: -33%; as for `Cc1c2non([O-])c-2c(C)[n+](=O)[n+]1[O-]`, inactive: 0%. The figure for `O=C(NC(Sc1ccncn1)C(Cl)(Cl)Cl)c1ccccc1` (centres undefined) is inactive: -21%; for `Oc1ccccc1CNc1ccccn1` it is inactive: -11%. On to `CC(C)CC(=O)NC(Sc1ccc(Cl)cc1)C(Cl)(Cl)Cl` (centres undefined), for which the inhibition was inactive: -6%. As for `Cc1ccc(N/C(=N/P(=O)(N2CCOCC2)N2CCOCC2)N2CCOCC2)cc1`, the figure is inactive: 0%; as for `NC(=O)c1cc([N+](=O)[O-])cc([N+](=O)[O-])c1N`, inactive: 0%; as for `Clc1ccc(Cl)c(NC2=NCC(CBr)S2)c1` (centres undefined), inactive: -12%.

`CN1CCCC(OC(=O)C(c2ccccc2)c2ccccc2)C1` (centres undefined): the inhibition was inactive: -2%. As for `COc1ccccc1OP(=O)(Nc1ccc(C)cn1)Oc1ccccc1OC`, the figure is inactive: -1%; as for `CCN(/C(=N/P(=O)(N1CCOCC1)N1CCOCC1)N1CCOCC1)c1ccc(OC)cc1`, inactive: -2%. The figure for `CC1CCN(C(=O)Oc2c(Cl)cc(Cl)c3cccnc23)CC1` is inactive: -3%; for `CN(C)C(=O)OCCc1n(C)cc[n+]1C` it is inactive: -10%. The figure for `CC(C)=N/N=C(\N)N[N+](=O)[O-]` is inactive: -13%; for `COc1ccc(C2=NCC(CBr)S2)cc1` (centres undefined) it is inactive: -7%. Regarding `CCc1nc2c(n1)c1c(non1O)c1c2no[n+]1[O-]`, the inhibition was inactive: 18%. As for `O=[N+]([O-])c1cc([N+](=O)[O-])c(CCNc2ccccc2)c([N+](=O)[O-])c1`, the figure is inactive: 4%. As for `Cc1ccc(NP(=O)(Oc2ccccc2)Oc2ccccc2)nc1`, the figure is inactive: -2%; as for `O=[N+]([O-])c1cccc2n[nH]nc12`, inactive: -11%. The figure for `CC(=O)N1C2C3N(C(C)=O)C1C1N(C(C)=O)C(C(N1C(C)=O)N3C(C)=O)N2C(C)=O` is inactive: -2%; for `O=[N+]([O-])c1ncn(CCn2ncnc2[N+](=O)[O-])n1` it is inactive: 0%. As for `CC(=O)NC(SC(=S)N(C)C)C(Cl)(Cl)Cl` (centres undefined), the inhibition is inactive: -12%. As for `O=C(OC1CN2CCC1CC2)c1cccc(Cl)c1` (centres undefined), the figure is inactive: 0%; as for `C(Cc1nn[nH]n1)Cc1nn[nH]n1`, inactive: -1%; as for `O=P(Nc1ccccn1)(c1ccc(Br)cc1)c1ccc(Br)cc1`, inactive: -2%. On to `CC(C)C(=O)NC(Sc1ccccc1)C(Cl)(Cl)Cl` (centres undefined), for which the inhibition was inactive: -13%. As to `O=P(Nc1nccs1)(c1ccccc1)c1ccccc1`, the inhibition was inactive: -7%.

As to `c1nnnn1CCn1cnnn1`, the inhibition was inactive: -7%.

Consider `CC(=O)Nc1ccc(Oc2c([N+](=O)[O-])cc([N+](=O)[O-])cc2[N+](=O)[O-])cc1`, for which the inhibition is inactive: 3%. As for `CCOc1ccc(C2=NCC(CBr)S2)cc1` (centres undefined), the figure is inactive: 0%; as for `O=P1(Nc2nc3ccc(Cl)cc3s2)COc2ccccc2O1` (centres undefined), inactive: -5%; as for `CC(C)(C)C(=O)NC(Sc1ccccc1)C(Cl)(Cl)Cl` (centres undefined), inactive: -2%. As for `CCC(=O)N1C2C3N(C(=O)CC)C1C1N(C(=O)CC)C(C(N1C(=O)CC)N3C(=O)CC)N2C(=O)CC`, the figure is inactive: 4%. As for `Cc1ccc(OP(=O)(Nc2ccccn2)Oc2ccc(C)cc2)cc1`, the inhibition was inactive: 0%.

Take `CC(=O)NC(SC(=S)N(CC(C)C)CC(C)C)C(Cl)(Cl)Cl` (centres undefined): the inhibition is inactive: -5%.

For the compound `COC(=O)c1cc2c(s1)N=C(c1ccccc1)N(C)P2(=O)N1CCOCC1` (centres undefined), the inhibition is inactive: -1%.

`O=c1c2cc([N+](=O)[O-])ccc2[nH]c2c([N+](=O)[O-])cc([N+](=O)[O-])cc12`: the inhibition was inactive: -3%. The figure for `CCOC(=O)NC(Sc1ccccc1)C(Cl)(Cl)Cl` (centres undefined) is inactive: -6%; for `c1ccc(-c2nn[nH]n2)c(-c2nn[nH]n2)c1` it is inactive: 1%. As for `CCNC(=S)/N=C(\N)N[N+](=O)[O-]`, the figure is inactive: -1%; as for `O=C(NC1CCS(=O)(=O)C1)NP(=S)(Oc1ccccc1)Oc1ccccc1` (centres undefined), inactive: -9%; as for `CCOP1(=S)c2c(C)nn(CCC#N)c2N=C(c2ccc(F)cc2)N1C` (centres undefined), inactive: -8%. The figure for `O=[N+]([O-])c1ccc2c(c1)nnn2O` is inactive: -3%.

Consider `O=P(Nc1nccs1)(c1ccccc1)c1nc2ccccc2s1` (centres undefined), for which the inhibition is inactive: -6%. As for `O=P(Nc1nccs1)(Oc1ccccc1)Oc1ccccc1`, the figure is inactive: -2%; as for `CCOP1(=S)c2c(C)nn(CCC#N)c2N=C(c2ccccc2F)N1C` (centres undefined), inactive: -10%; as for `Cc1ccc(NCCc2c([N+](=O)[O-])cc([N+](=O)[O-])cc2[N+](=O)[O-])cc1`, inactive: -3%. As for `CCOP(=O)(Nc1cccc2ccccc12)OCC`, the figure is inactive: -6%; as for `COc1cc(C2NCCC3(OCCO3)C2(C)C)cc(OC)c1OC` (centres undefined), inactive: 5%; as for `COc1cc(C(=O)NCC2(N3CCOCC3)CCCCC2)cc(Cl)c1OC(C)C`, inactive: -6%. As for `Cc1cccc(OCC(=O)OC2CN3CCC2CC3)c1` (centres undefined), the figure is inactive: 0%. On to `CC(C)/C=N\N=C(\N)N[N+](=O)[O-]`, for which the inhibition was inactive: 0%. The figure for `CN(C(=O)Cc1ccc(Cl)c(Cl)c1)[C@@H]1CCCC[C@H]1N1CCCC1` is inactive: 0%. As for `O=P1(Nc2ccccn2)COc2ccccc2OC1`, the figure is inactive: -9%. The figure for `Clc1n[nH]nc1-c1nn[nH][15n]1` is inactive: -10%; for `O=P1(Nc2ncccn2)COc2ccccc2OC1` it is inactive: -1%. On to `O=P1(Nc2ccc(Br)cn2)COc2ccccc2OC1`, for which the inhibition was inactive: -6%. With `Cc1ccc(OCC(=O)OC2CN3CCC2CC3)cc1` (centres undefined), the inhibition was inactive: -7%. The figure for `CC1CCC(C(C)C)C(OP(=O)(Nc2ccccn2)c2ccccc2)C1` (centres undefined) is inactive: -5%; for `Cc1nn(-c2ccccc2)c2c1P(=O)(N1CCOCC1)N(C)C(c1ccccc1)=N2` (centres undefined) it is inactive: 1%; for `CN(C)C1(CNC(=O)c2ccc(S(C)(=O)=O)cc2)CCCCC1` it is inactive: 1%.

`O=P(Nc1ccccn1)(c1cccc2ccccc12)c1cccc2ccccc12`: the inhibition was inactive: -5%. As for `Cc1cc(SC(NC=O)C(Cl)(Cl)Cl)ncn1` (centres undefined), the figure is inactive: -24%; as for `Cc1cc(SC(NC(=O)c2ccccc2)C(Cl)(Cl)Cl)nc(C(C)C)n1` (centres undefined), inactive: -24%; as for `CCC(C)N(CC(C)C)C(=S)SC(NC(C)=O)C(Cl)(Cl)Cl` (centres undefined), inactive: -3%. The figure for `COP1(=S)c2c(C)nn(CCC#N)c2N=C(c2ccc(F)cc2)N1C` (centres undefined) is inactive: -7%; for `O=C(COc1ccccc1)OC1CN2CCC1CC2` (centres undefined) it is inactive: 1%. As for `COc1ccc(N/C(=N/P(=O)(N2CCOCC2)N2CCOCC2)N2CCOCC2)cc1`, the figure is inactive: -6%. Consider `Cc1c2c(nc3ccccc13)SC(C(Cl)Cl)C2` (centres undefined), for which the inhibition was inactive: -2%. The figure for `Cc1cc(=O)[nH]c(N[N+](=O)[O-])n1` is inactive: -1%; for `O=C(OC1CN2CCC1CC2)C12CC3CC(CC(C3)C1)C2` (centres undefined) it is inactive: -7%; for `COc1ccc2nc(NP(=O)(c3ccccc3)c3ccccc3)sc2c1` it is inactive: -2%. Consider `ClCCSc1nnc(-c2cccnc2)o1`, for which the inhibition is inactive: -8%. Turning to `O=[N+]([O-])c1cc([N+](=O)[O-])c(-c2ccn[nH]2)s1`, the inhibition was inactive: -21%. `CCN(CC)C(=S)SC(NC=O)C(Cl)(Cl)Cl` (centres undefined): the inhibition was inactive: -7%. The figure for `CC(C)NC(=O)NP(=O)(Oc1ccccc1)Oc1ccccc1` is inactive: -4%; for `Cc1ccc2nc3c(c(C)c2c1)CC(C(Cl)Cl)S3` (centres undefined) it is inactive: -8%.
